“And” between values parts separate entries of the source, which are not always exact repeats. Equal values may be shown once. Read-outs that look alike come from different tables or passages of the source.
Tests used:
[1] = tested on: wild type, Δzuo1, Δsac1, Δvsp52, and Δvps16 strains of Saccharomyces cerevisiae; conditions: 500 μg mL^−1, FIG. 4
yARF1yarf2Δ cells = conditions: 500 μg mL^−1, FIG. 5
Sprague Dawley rats = conditions: 100 mg/kg

Substance | SCr (serum creatinine) (rats; Day 0, Mean of rats) [mg/dL] | SCr (serum creatinine) (rats; Day 1, Mean of rats) [mg/dL] | SCr (serum creatinine) (rats; Day 2, Mean of rats) [mg/dL] | SCr (serum creatinine) (rats; Day 3, Mean of rats) [mg/dL] | SCr (serum creatinine) (rats; Day 5, Mean of rats) [mg/dL] | SCr (serum creatinine) (rats; Day 7, Mean of rats) [mg/dL] | SCr (serum creatinine) (Sprague Dawley rats; Day 0, Mean of rats) [mg/dL] | SCr (serum creatinine) (Sprague Dawley rats; Day 0, individual rat) | SCr (serum creatinine) (Sprague Dawley rats; Day 1, Mean of rats) [mg/dL] | SCr (serum creatinine) (Sprague Dawley rats; Day 1, individual rat) | SCr (serum creatinine) (Sprague Dawley rats; Day 2, Mean of rats) [mg/dL] | SCr (serum creatinine) (Sprague Dawley rats; Day 2, individual rat) | SCr (serum creatinine) (Sprague Dawley rats; Day 3, Mean of rats) [mg/dL] | SCr (serum creatinine) (Sprague Dawley rats; Day 3, individual rat) | SCr (serum creatinine) (Sprague Dawley rats; Day 5, Mean of rats) [mg/dL] | SCr (serum creatinine) (Sprague Dawley rats; Day 5, individual rat) | SCr (serum creatinine) (Sprague Dawley rats; Day 7, Mean of rats) [mg/dL] | SCr (serum creatinine) (Sprague Dawley rats; Day 7, individual rat) | SCr (serum creatinine) (Sprague Dawley rats; Day 8, Mean of rats) [mg/dL] | SCr (serum creatinine) (Sprague Dawley rats; Day 8, individual rat) | also measured
C-1 gentamicin | 0.2 | 0.2 | 0.3 | 0.4 | 0.5 | 0.5 | – | – | – | – | – | – | – | – | – | – | – | – | – | – | effect on yeast growth [1]: less of an effect on yeast growth than native gentamicin or any of the other congener of gentamicin; SCr (serum creatinine) (rats; Day 0, individual rat, listed as C-1 congener): 0.1 mg/dL and 0.2 mg/dL (2×) and 0.3 mg/dL; SCr (serum creatinine) (rats; Day 1, individual rat, listed as C-1 congener): 0.2 mg/dL (3×) and 0.1 mg/dL; SCr (serum creatinine) (rats; Day 2, individual rat, listed as C-1 congener): 0.2 mg/dL (2×) and 0.3 mg/dL (2×); SCr (serum creatinine) (rats; Day 3, individual rat, listed as C-1 congener): 0.4 mg/dL (2×) and 0.3 mg/dL and 0.5 mg/dL; SCr (serum creatinine) (rats; Day 5, individual rat, listed as C-1 congener): 0.6 mg/dL (2×) and 0.4 mg/dL and 0.3 mg/dL; SCr (serum creatinine) (rats; Day 7, individual rat, listed as C-1 congener): 0.6 mg/dL and 0.4 mg/dL (2×) and 0.5 mg/dL; level of serum creatinine (in words) (rats; rat studies, compared with any gentamicin congener administered): lowest level of serum creatinine for any gentamicin congener; toxicity in vivo (in words) (rats; rats, compare Table 3 with Table 11): less toxic in vivo than the C-2 congener; percent growth (bARF1 cells; 100 μg mL^−1, FIG. 6): higher percent growth relative to other congeners of gentamicin or native gentamicin; percent growth (bARF1 cells; 500 μg mL^−1, FIG. 6): higher percent growth; percent growth (hARF4 cells; 100 μg mL^−1, FIG. 6): higher percent growth relative to other congeners of gentamicin or native gentamicin; percent growth (hARF4 cells; 500 μg mL^−1, FIG. 6): higher percent growth; effect on bovine cell growth (yARF1yarf2Δ cells): less of an effect on bovine cell growth than native gentamicin or any of the other congeners of gentamicin
C-1a gentamicin | 0.2 | 0.2 | 0.3 | 0.5 | 0.7 | 0.7 | 0.2 | 0.1 mg/dL and 0.2 mg/dL (2×) | 0.4 | 0.3 mg/dL and 0.5 mg/dL | 0.5 | 0.4 mg/dL and 0.5 mg/dL | 0.5 | 0.5 mg/dL and 0.4 mg/dL | 0.6 | 0.5 mg/dL and 0.6 mg/dL | 0.6 | 0.6 mg/dL | 0.7 | 0.7 mg/dL and 0.6 mg/dL | SCr (serum creatinine) (rats; Day 0, individual rat, listed as C-1a congener): 0.1 mg/dL and 0.3 mg/dL and 0.2 mg/dL (2×); SCr (serum creatinine) (rats; Day 1, individual rat, listed as C-1a congener): 0.3 mg/dL and 0.2 mg/dL (3×); SCr (serum creatinine) (rats; Day 2, individual rat): 0.3 mg/dL; SCr (serum creatinine) (rats; Day 3, individual rat, listed as C-1a congener): 0.6 mg/dL (2×) and 0.5 mg/dL and 0.4 mg/dL; SCr (serum creatinine) (rats; Day 5, individual rat, listed as C-1a congener): 0.6 mg/dL (2×) and 1.0 mg/dL and 0.4 mg/dL; SCr (serum creatinine) (rats; Day 7, individual rat, listed as C-1a congener): 0.6 mg/dL (2×) and 0.9 mg/dL and 0.5 mg/dL; death of rat (Sprague Dawley rats; Rat #8, after the first injection): died
C-2 gentamicin | – | – | – | – | – | – | 0.2 | 0.3 mg/dL and 0.2 mg/dL and 0.1 mg/dL | 0.3 | 0.5 mg/dL and 0.3 mg/dL and 0.2 mg/dL | 0.4 | 0.5 mg/dL (2×) and 0.3 mg/dL | 0.4 | 0.3 mg/dL and 0.4 mg/dL and 0.5 mg/dL | 0.5 | 0.5 mg/dL | 0.6 | 0.6 mg/dL (2×) and 0.5 mg/dL | 0.5 | 0.6 mg/dL and 0.5 mg/dL (2×) | –
C-2a gentamicin | 0.2 | 0.3 | 0.5 | 0.7 | 0.9 | 0.7 | – | – | – | – | – | – | – | – | – | – | – | – | – | – | SCr (serum creatinine) (rats; Day 0, individual rat, listed as C-2a congener): 0.3 mg/dL (2×) and 0.2 mg/dL and 0.1 mg/dL; SCr (serum creatinine) (rats; Day 1, individual rat, listed as C-2a congener): 0.4 mg/dL (2×) and 0.2 mg/dL and 0.3 mg/dL; SCr (serum creatinine) (rats; Day 2, individual rat, listed as C-2a congener): 0.6 mg/dL and 0.4 mg/dL (2×) and 0.5 mg/dL; SCr (serum creatinine) (rats; Day 3, individual rat, listed as C-2a congener): 0.9 mg/dL and 0.6 mg/dL and 0.5 mg/dL and 0.8 mg/dL; SCr (serum creatinine) (rats; Day 5, individual rat, listed as C-2a congener): 0.9 mg/dL and 0.6 mg/dL and 0.8 mg/dL and 1.2 mg/dL; SCr (serum creatinine) (rats; Day 7, individual rat, listed as C-2a congener): 0.8 mg/dL and 0.5 mg/dL and 0.9 mg/dL and 0.6 mg/dL

Source: patent publication US10555961B2 (INDIANA UNIVERSITY RESEARCH AND TECHNOLOGY CORPORATION, priority 2015, dated 2020)
